Assay results taken from ChEMBL document CHEMBL5338779, “Discovery, Synthesis, and In Vitro Characterization of 2,3 Derivatives of 4,5,6,7-Tetrahydro-Benzothiophene as Potent Modulators of Retinoic Acid Receptor-Related Orphan Receptor γt” (J Med Chem, 2023).

Protein sequences, listed by entry. Tags and fused reporters are not part of them. Lines headed by an entry give the natural chain unless they say otherwise; changes in a name come on top.
UniProt P51449: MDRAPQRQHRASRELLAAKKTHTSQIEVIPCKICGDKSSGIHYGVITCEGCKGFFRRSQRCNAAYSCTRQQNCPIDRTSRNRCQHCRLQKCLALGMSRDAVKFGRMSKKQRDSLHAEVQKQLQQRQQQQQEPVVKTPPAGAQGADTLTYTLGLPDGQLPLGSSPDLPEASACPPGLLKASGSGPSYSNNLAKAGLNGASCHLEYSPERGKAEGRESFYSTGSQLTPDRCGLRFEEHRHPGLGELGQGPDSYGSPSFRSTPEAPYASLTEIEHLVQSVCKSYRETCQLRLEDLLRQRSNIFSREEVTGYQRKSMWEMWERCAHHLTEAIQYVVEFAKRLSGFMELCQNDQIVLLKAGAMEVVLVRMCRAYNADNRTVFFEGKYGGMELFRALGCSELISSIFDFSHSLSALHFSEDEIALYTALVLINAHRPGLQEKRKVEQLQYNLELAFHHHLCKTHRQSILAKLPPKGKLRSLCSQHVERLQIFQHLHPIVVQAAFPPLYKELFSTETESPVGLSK

Target: Nuclear receptor ROR-gamma (Homo sapiens, UniProt P51449)
Conditions: HEK293T, filed as inverse agonist, dose 0.004-1000 nM

- deltaG: -11.2 kcal/mol
SMILES: CCc1ccc(N(CC(C)C)S(=O)(=O)c2ccc(OCC3CCOCC3)c(CO)c2)cc1 [GSK2981278]
